## Permeability data for macrocyclic peptides

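Lipid, pH, incubation time, direction and concentration are not recorded in the data file. The list need not hold all peptides of the study. Peptides that the database sets to -10, its floor, are left out.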

PAMPA measures passive passage through an artificial lipid membrane. Values are log10 P with P in cm/s, so -5 is more permeable than -7.

CC(C)C[C@@H]1NC(=O)[C@@H](CC(C)C)NC(=O)[C@@H](C)N(C)C(=O)[C@H]2CCCN2C(=O)[C@H](Cc2ccccc2)NC(=O)[C@@H](CC(C)C)N(C)C(=O)[C@H]2CCCN2C1=O is reported with PAMPA -5.30 (log10 cm/s). CC(C)C[C@@H]1C(=O)N2CCC[C@H]2C(=O)N(Cc2ccccc2)CC(=O)N[C@@H](Cc2ccccc2)C(=O)N2CCC[C@H]2C(=O)N[C@@H](C)C(=O)N(C)[C@@H](CC(C)C)C(=O)N1C has PAMPA -5.61 (log10 cm/s). CC(C)C[C@@H]1NC(=O)[C@H](C)N(C)C(=O)[C@H]2CCCN2C(=O)[C@H](Cc2ccccc2)NC(=O)[C@@H](CC(C)C)N(C)C(=O)[C@@H]2CCCN2C(=O)[C@@H](CC(C)C)N(C)C1=O has PAMPA -5.11 (log10 cm/s). The entry for CC(C)C[C@@H]1NC(=O)[C@H](C)NC(=O)[C@H](Cc2ccccc2)NC(=O)[C@@H](CC(C)C)NC(=O)[C@@H]2CCCN2C(=O)[C@@H](CC(C)C)N(C)C1=O lists PAMPA -6.10 (log10 cm/s). CC(C)C[C@@H]1NC(=O)[C@@H](C)N(C)C(=O)[C@H](Cc2ccccc2)NC(=O)CN(Cc2ccccc2)C(=O)[C@@H]2CCCN2C(=O)[C@H](CC(C)C)N(C)C1=O is reported with PAMPA -5.07 (log10 cm/s).

The entry for CC(C)C[C@@H]1C(=O)N(Cc2ccccc2)CC(=O)N2CCC[C@H]2C(=O)N(C)[C@H](CC(C)C)C(=O)N[C@@H](Cc2ccccc2)C(=O)N2CCC[C@@H]2C(=O)N[C@@H](C)C(=O)N1C lists PAMPA -5.81 (log10 cm/s). Listed for CC(C)C[C@@H]1NC(=O)[C@@H](CC(C)C)NC(=O)[C@@H](C)N(C)C(=O)[C@H](Cc2ccccc2)NC(=O)CN(Cc2ccccc2)C(=O)[C@@H]2CCCN2C1=O: PAMPA -5.69 (log10 cm/s). CC(C)C[C@@H]1NC(=O)[C@H]2CCCN2C(=O)[C@@H](CC(C)C)N(C)C(=O)[C@@H](CC(C)C)N(C)C(=O)[C@@H](C)N(C)C(=O)[C@@H]2CCCN2C(=O)[C@H](Cc2ccccc2)NC1=O is reported with PAMPA -6.01 (log10 cm/s). For CC(C)C[C@@H]1NC(=O)[C@@H]2CCCN2C(=O)C[C@H](Cc2ccccc2)NC(=O)[C@@H](CC(C)C)N(C)C(=O)[C@H](C)N(C)C(=O)[C@H]2CCCN2C(=O)[C@H](Cc2ccccc2)NC1=O the data give PAMPA -6.19 (log10 cm/s). CC(C)C[C@@H]1C(=O)N[C@@H](Cc2ccccc2)CC(=O)N2CCC[C@@H]2C(=O)N(C)[C@H](CC(C)C)C(=O)N[C@@H](Cc2ccccc2)C(=O)N2CCC[C@H]2C(=O)N[C@@H](C)C(=O)N1C has PAMPA -4.96 (log10 cm/s).

For CCCN1CC(=O)N(C)[C@H](CC(C)C)C(=O)N(C)[C@@H](CC(C)C)C(=O)N2CCC[C@@H]2C(=O)N[C@H](CC(C)C)C(=O)N[C@@H](Cc2ccccc2)C1=O the data give PAMPA -5.04 (log10 cm/s). Listed for CC(C)C[C@@H]1NC(=O)[C@@H]2CCCN2C(=O)[C@@H](CC(C)C)N(C)C(=O)[C@H](CC(C)C)N(C)C(=O)[C@@H](C)NC(=O)[C@@H]2CCCN2C(=O)[C@H](Cc2ccccc2)NC1=O: PAMPA -5.86 (log10 cm/s). The entry for CC(C)C[C@@H]1C(=O)N(C)[C@@H](CC(C)C)C(=O)N2CCC[C@H]2C(=O)N(C)[C@@H](CC(C)C)C(=O)N[C@@H](Cc2ccccc2)C(=O)N2CCC[C@@H]2C(=O)N(C)[C@@H](C)C(=O)N1C lists PAMPA -5.04 (log10 cm/s). The entry for CC(C)C[C@@H]1NC(=O)[C@H](C)N(C)C(=O)[C@@H]2CCCN2C(=O)[C@H](Cc2ccccc2)NC(=O)[C@@H](CC(C)C)N(C)C(=O)[C@@H]2CCCN2C(=O)[C@H](CC(C)C)NC1=O lists PAMPA -5.91 (log10 cm/s). Listed for CCCN1CC(=O)N[C@H](CC(C)C)C(=O)N(C)[C@@H](CC(C)C)C(=O)N2CCC[C@@H]2C(=O)N[C@@H](CC(C)C)C(=O)N[C@@H](Cc2ccccc2)C(=O)N2CCC[C@@H]2C1=O: PAMPA -5.82 (log10 cm/s).

CC(C)C[C@@H]1NC(=O)[C@@H](C)NC(=O)[C@H](Cc2ccccc2)NC(=O)CN(Cc2ccccc2)C(=O)[C@H]2CCCN2C(=O)[C@H](CC(C)C)N(C)C1=O has PAMPA -5.44 (log10 cm/s). For CC(C)C[C@@H]1NC(=O)[C@@H]2CCCN2C(=O)CN(Cc2ccccc2)C(=O)[C@H](CC(C)C)NC(=O)[C@@H](C)N(C)C(=O)[C@@H]2CCCN2C(=O)[C@H](Cc2ccccc2)NC1=O the data give PAMPA -5.92 (log10 cm/s). CC(C)C[C@@H]1NC(=O)[C@@H](C)NC(=O)[C@@H]2CCCN2C(=O)[C@H](Cc2ccccc2)NC(=O)[C@@H](CC(C)C)NC(=O)[C@@H]2CCCN2C(=O)CN(Cc2ccccc2)C1=O is reported with PAMPA -6.12 (log10 cm/s). Listed for CC(C)C[C@@H]1C(=O)N[C@H](CC(C)C)C(=O)N2CCC[C@H]2C(=O)N(Cc2ccccc2)CC(=O)N[C@@H](Cc2ccccc2)C(=O)N[C@@H](Cc2ccccc2)CC(=O)N1C: PAMPA -5.31 (log10 cm/s). CC(C)C[C@H]1NC(=O)[C@@H](C)NC(=O)[C@H](Cc2ccccc2)NC(=O)CN(Cc2ccccc2)C(=O)[C@@H]2CCCN2C(=O)[C@@H](CC(C)C)NC1=O is reported with PAMPA -6.63 (log10 cm/s).

Extract of 2 entries:

{"smiles": "CC(C)C[C@@H]1NC(=O)[C@@H](CC(C)C)NC(=O)[C@@H](C)N(C)C(=O)[C@H]2CCCN2C(=O)[C@H](Cc2ccccc2)NC(=O)[C@@H](CC(C)C)N(C)C(=O)[C@H]2CCCN2C1=O", "PAMPA (log10 cm/s)": "-5.30"}
{"smiles": "CC(C)C[C@@H]1NC(=O)[C@@H](C)NC(=O)[C@H](Cc2ccccc2)NC(=O)CN(Cc2ccccc2)C(=O)[C@H]2CCCN2C(=O)[C@H](CC(C)C)N(C)C1=O", "PAMPA (log10 cm/s)": "-5.44"}

Source: CycPeptMPDB (Li et al. 2023), which took these values from Townsend et al. 2020, doi:10.26434/chemrxiv.13335941.v1.